# Measured values as given in PubChem BioAssay AID2549 (National Center for Advancing Translational Sciences (NCATS), 2010).
# By UniProt entry, the sequences of proteins in these tests, tags left out. Where a name states a change or a piece, a line headed by the entry shows the natural chain unless it says otherwise.
# UniProt P46063: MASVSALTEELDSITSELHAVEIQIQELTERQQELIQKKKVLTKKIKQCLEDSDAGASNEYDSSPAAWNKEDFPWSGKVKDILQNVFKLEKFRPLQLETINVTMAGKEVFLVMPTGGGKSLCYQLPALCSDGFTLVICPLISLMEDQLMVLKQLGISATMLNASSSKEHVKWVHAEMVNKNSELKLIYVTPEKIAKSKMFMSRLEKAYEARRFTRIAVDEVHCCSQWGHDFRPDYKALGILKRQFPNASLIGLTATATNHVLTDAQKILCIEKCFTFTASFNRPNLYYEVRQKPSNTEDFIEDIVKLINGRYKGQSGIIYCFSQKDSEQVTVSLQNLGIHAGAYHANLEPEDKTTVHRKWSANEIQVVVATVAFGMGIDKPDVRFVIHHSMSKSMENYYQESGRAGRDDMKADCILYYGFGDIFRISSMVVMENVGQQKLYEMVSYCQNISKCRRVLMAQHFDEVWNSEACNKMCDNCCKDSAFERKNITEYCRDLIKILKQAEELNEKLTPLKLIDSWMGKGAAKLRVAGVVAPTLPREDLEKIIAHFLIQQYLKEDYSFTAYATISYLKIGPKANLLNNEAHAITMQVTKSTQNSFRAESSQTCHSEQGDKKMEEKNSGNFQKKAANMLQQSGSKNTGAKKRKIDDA
# This is a selection; strong and weak results do not stand in their true shares. The source made the active and inactive calls. The call rests on the fitted dose curve; in most records, active means well fitted inhibition curve with a large enough effect; inconclusive means small, poorly fitted or top-dose-only effect; inactive means flat fitted curve, though single readings scatter.
# Target: ATP-dependent DNA helicase Q1 (Homo sapiens) (UniProt P46063)
# Experiment: qHTS Assay for Inhibitors of RecQ-Like Dna Helicase 1 (RECQ1); further: nearly all actives have a fitted effect of over 30% in size
# Conditions: RECQ1 DNA unwinding, red fluorescence kinetic read; series mostly up to 57.3 µM; activity, negative = inhibition: at the top concentration
# Source text: Survival of cells and the faithful propagation of the genome depend on elaborate mechanisms of detecting and repairing DNA damage. Treatment of advanced cancer relies on radiation therapy or chemotherapy, which kill cancer cells by causing extensive DNA damage. It is often found, that cancer cells develop resistance to therapy through enhanced activity of DNA repair functions; this has led to an increased interest in developing drugs that interfere with DNA repair, which could sensitize cancer cells to conventional therapy.
# This validation qHTS assay pertains to human RECQ1, which is important in resolving abnormal DNA structures formed during replication or homologous recombination. Shutting down the expression of RECQ1 leads to chromosomal instability and higher radiation sensitivity in cultured cells.
# The validation assay was a fluorescence quenching based kinetic qHTS for RECQ1 Helicase DNA unwinding. The activity was measured as ATP-dependent separation of a 20-bp DNA duplex extended by 30-nt single-stranded tails (forked duplex). The forked DNA substrate was tagged with rhodamine fluorophore (carboxytetramethyl rhodamine, TAMRA) and BHQ-2 (Black Hole Quencher 2) dark quencher. Strand separation results in an increase in the fluorescence of TAMRA (excitation 525 nm, emission 598 nm). This substrate construct operates in a red-shifted region where very few compound library members have been noted to fluoresce (PubChem AIDs 593 and 594). An additional feature of the assay is the inclusion of 2.5 ug/ml poly (dIdC), to reduce interference by compounds such as DNA intercalators, a major source of false inhibitors.
# Opher Gileadi, Structural Genomics Consortium, University of Oxford
# Screening Center PI: Austin, C.P.
# Screening Center: NIH Chemical Genomics Center [NCGC]
# Three uL of reaction buffer (25 mM Tris-HCl (pH 8.0), 5 mM NaCl, 2 mM MgCl2, 1mM DTT, 0.01% Tween- 20, and 2.5 ug/ml poly(dI-dC), including enzyme (50 nM RECQ1T1), were dispensed into a 1536-well Greiner black assay plate via solenoid-valve based nanoliter dispensers. Compounds (23 nl each in columns 5-48) and control (23 nl each in column 2 as dose-response) were transferred via a Kalypsys pintool equipped with a 1536-pin array. The plates were incubated for 15 min at room temperature, and then 1 ul of substrates (200 nM DNA and 2 mM ATP, final concentrations) was added to start the reaction. The plate was transferred into a ViewLux high-throughput CCD imager where the reaction progress was measured in a discontinuous kinetic mode (two reads spaced 2 hours apart, with intermediate room temperature incubation of the covered assay plate) by using standard red-fluorescence optics (excitation filter 525 nm, emission filter 598 nm). Enzyme-free and vehicle (DMSO) controls were included for signal normalization.
SMILES,"activity, negative = inhibition",outcome,Potency
COc1ccc2nc(NP(=O)(c3ccccc3)c3ccccc3)sc2c1,inactive: -18.2%,–,–
COc1cc(I)ccc1[As](=O)(O)O,inactive: -3.86%,–,–
Cc1c2c(nc3ccccc13)SC(C(Cl)Cl)C2 (stereo not drawn),inactive: -1.47%,–,–
O=C(OC1CN2CCC1CC2)C12CC3CC(CC(C3)C1)C2 (stereo not drawn),inactive: -12.3%,–,–
Cc1cc(=O)[nH]c(N[N+](=O)[O-])n1,inactive: 1.51%,–,–
COc1ccc(N/C(=N/P(=O)(N2CCOCC2)N2CCOCC2)N2CCOCC2)cc1,inactive: -3.26%,–,–
Cc1ccc(OP(=O)(Nc2ccc([N+](=O)[O-])cn2)Oc2ccc(C)cc2)cc1,–,inactive,–
Cc1ccc2nc3c(c(C)c2c1)CC(C(Cl)Cl)S3 (stereo not drawn),inactive: -2.51%,–,–
C[As](=O)(O)c1cccc(C(=O)O)c1,–,inactive,–
O=[As](O)(c1ccc(O)cc1)c1ccccc1O,inactive: -5.53%,–,–
CCN(CC)C(=S)SC(NC=O)C(Cl)(Cl)Cl (stereo not drawn),inactive: -14.3%,–,–
CC(C)NC(=O)NP(=O)(Oc1ccccc1)Oc1ccccc1,–,inactive,–
O=[N+]([O-])c1cc([N+](=O)[O-])c(-c2ccn[nH]2)s1,inactive: 1.17%,–,–
ClCCSc1nnc(-c2cccnc2)o1,inactive: 2.11%,–,–
CC(C)c1ccc(OP(=O)(Nc2ccccn2)Oc2ccccc2F)cc1 (stereo not drawn),inactive: -3.08%,–,–
Cc1cc(SC(NC(=O)c2ccccc2)C(Cl)(Cl)Cl)nc(C(C)C)n1 (stereo not drawn),inactive: -3.12%,–,–
CCOC(=O)Nc1ccc([As](=O)(O)O)c(O)c1,–,inactive,–
Cc1cc(SC(NC=O)C(Cl)(Cl)Cl)ncn1 (stereo not drawn),inactive: 24.1%,–,–
O=P(Nc1ccccn1)(c1cccc2ccccc12)c1cccc2ccccc12,–,inactive,–
CN(N=O)C(=N)N[N+](=O)[O-],inactive: -8.05%,–,–
O=[N+]([O-])c1ccc(Nc2ccc(Oc3ccc([N+](=O)[O-])cc3[N+](=O)[O-])cc2)c([N+](=O)[O-])c1,inactive: -1.02%,–,–
CCOC(=O)Nc1cccc([As](=O)(O)O)c1,inactive: -9.16%,–,–
O=C(COc1ccccc1)OC1CN2CCC1CC2 (stereo not drawn),inactive: -2.18%,–,–

SMILES,"activity, negative = inhibition",outcome,Potency
COP1(=S)c2c(C)nn(CCC#N)c2N=C(c2ccc(F)cc2)N1C (stereo not drawn),inactive: -16%,–,–
CCC(C)N(CC(C)C)C(=S)SC(NC(C)=O)C(Cl)(Cl)Cl (stereo not drawn),inactive: -2.63%,–,–
CCOC(=O)c1ccc(NC(=O)C(C)(CCl)SC)cc1 (stereo not drawn),inactive: -8.19%,–,–
Clc1n[nH]nc1-c1nn[nH][15n]1,inactive: -1.31%,–,–
CC(C)(C)C(=O)NC(Sc1ncccn1)C(Cl)(Cl)Cl (stereo not drawn),inactive: 23.6%,–,–
O=P1(Nc2ccccn2)COc2ccccc2OC1,inactive: -0.409%,–,–
CN(CCCl)Cc1cc(Cl)c(NC2=NCCN2)c(Cl)c1,–,–,inactive
CCOP(=O)(Nc1ccc(C)cn1)OCC,–,inactive,–
CN(C(=O)Cc1ccc(Cl)c(Cl)c1)[C@@H]1CCCC[C@H]1N1CCCC1,–,–,inactive
CC(C)/C=N\N=C(\N)N[N+](=O)[O-],inactive: -1.48%,–,–
O=[As](O)(c1ccccc1Br)c1ccccc1Br,inactive: -13.8%,–,–
CN(C)C1(CNC(=O)c2ccc(S(C)(=O)=O)cc2)CCCCC1,–,inactive,–
O=C(/C=C/c1ccccc1)OC1CN2CCC1CC2 (stereo not drawn),inactive: -2.75%,–,–
Cc1nn(-c2ccccc2)c2c1P(=O)(N1CCOCC1)N(C)C(c1ccccc1)=N2 (stereo not drawn),inactive: -2.45%,–,–
CC1CCC(C(C)C)C(OP(=O)(Nc2ccccn2)c2ccccc2)C1 (stereo not drawn),inactive: -9.25%,–,–
Nc1cccc([As](=O)(O)c2ccccc2)c1,inactive: -0.551%,–,–
O=P1(Nc2ccc(Br)cn2)COc2ccccc2OC1,inactive: -1.94%,–,–
Cc1ccc(OCC(=O)OC2CN3CCC2CC3)cc1 (stereo not drawn),inactive: -2.21%,–,–
O=[As](O)(c1cccs1)c1cccs1,inactive: -7.14%,–,–
O=P1(Nc2ncccn2)COc2ccccc2OC1,–,inactive,–
O=C(O)COc1ccc([As](=O)(O)O)cc1[N+](=O)[O-],–,inactive,–
Nc1ccccc1[As](=O)(O)c1ccccc1,inactive: -3.81%,–,–
CCOP1(=S)c2c(C)nn(CCC#N)c2N=C(c2ccccc2F)N1C (stereo not drawn),inactive: -11.3%,–,–

SMILES,"activity, negative = inhibition",outcome,Potency
O=P(Nc1nccs1)(c1ccccc1)c1nc2ccccc2s1 (stereo not drawn),inactive: -2.16%,–,–
O=P(Nc1nccs1)(Oc1ccccc1)Oc1ccccc1,inactive: 3.68%,–,–
CS(=O)(=O)c1cc([N+](=O)[O-])c2no[n+]([O-])c2c1,inactive: -6.98%,–,–
CCOP1(=S)c2c(C)nn(CCC#N)c2N=C(c2ccc(F)cc2)N1C (stereo not drawn),inactive: -3.07%,–,–
CN(C(=O)Cc1ccccc1)[C@@H]1CC[C@]2(CCCO2)C[C@H]1N1CCCC1,–,–,inactive
O=[N+]([O-])c1ccc2c(c1)nnn2O,inactive: -11%,–,–
NC(=O)Nc1ccc([As](=O)(O)O)cc1,–,–,inactive
O=[N+]([O-])CC(O)c1ccc([N+](=O)[O-])cc1 (stereo not drawn),–,inactive,–
O=[As](O)(c1cccc(O)c1)c1cccc(O)c1,inactive: 11.9%,–,–
Cc1cccc(OCC(=O)OC2CN3CCC2CC3)c1 (stereo not drawn),–,inactive,–
O=C(OC1CN2CCC1CC2)c1ccc(Cl)cc1 (stereo not drawn),inactive: -5.51%,–,–
CN(C(=O)Cc1ccc(Cl)c(Cl)c1)[C@@H]1CC[C@]2(CCCO2)C[C@H]1N1CCCC1,–,–,inactive
COc1cc(C(=O)NCC2(N3CCOCC3)CCCCC2)cc(Cl)c1OC(C)C,inactive: 2.69%,–,–
O=[As](O)(O)c1cccnc1,–,inactive,–
COc1cc(C2NCCC3(OCCO3)C2(C)C)cc(OC)c1OC (stereo not drawn),–,inactive,–
CCOP(=O)(Nc1cccc2ccccc12)OCC,inactive: -0.511%,–,–
Cc1ccc(NCCc2c([N+](=O)[O-])cc([N+](=O)[O-])cc2[N+](=O)[O-])cc1,inactive: -16.2%,–,–
Nc1cccc2c([As](=O)(O)O)cccc12,inactive: 5.52%,–,–
CCCOP(=S)(Nc1nc(N)cc(=O)[nH]1)OCCC,–,inactive,–
CC(C)(C)C(=O)NC(Sc1ccccc1)C(Cl)(Cl)Cl (stereo not drawn),–,inactive,–
O=P1(Nc2nc3ccc(Cl)cc3s2)COc2ccccc2O1 (stereo not drawn),inactive: -6.4%,–,–
CCOc1ccc(C2=NCC(CBr)S2)cc1 (stereo not drawn),–,inactive,–
